Patent US4939175A, “Use of N,N-dimethyl-1-[1-(4-chlorophenyl)cyclobutyl]-3-methylbutylamine” (priority 1988, dated 1990)
Where “and” joins values, the source holds several entries; their conditions need not be identical. Equal values may be shown once.

Columns and labels:
[1] = system: re-uptake of ^3 H-dopamine; test: Re-uptake of 3H-dopamine in vitro (synaptosomes, P2 fraction of whole brain); format: biochemical, Std: Wistar strain male rat; conditions: Experiment II, rat brain synaptosomes, 37° C., 20 minutes
Description: Effect of the test samples on the re-uptake of ^3 H-dopamine in vitro
P2 fraction was prepared from the whole brain of Std: Wistar strain male rat. […] The obtained mixture was incubated at 37° C. for 20 minutes and then subjected to the suction filtration with Whatman GF/B filter paper.
The obtained filter paper was put in a vial containing 10 ml of toluene type scintillator and its radioactivity was measured by means of liquid scintillation counter. The amount of the specific re-uptake of ^3 H-dopamine was obtained by subtracting the amount of re-uptake at 0° C. as blank.

[2] = system: depletion of dopamine induced by MPTP in mice whole brain; parameters: species or system SlC: ddy strain male mice; conditions: mouse, in vivo

Compound	IC50 [1]	Percentage of the amount of dopamine in the treated group against the amount of dopamine in the non-treated group [2]
CN(C)CC/C=C1\c2ccccc2CSc2ccccc21 [Dosulepin, dosulepin]	9.6 µM	
O=C(O)/C=C\C(=O)O.c1csc(Cc2ccccc2OCC2CNCCO2)c1 (centres unmarked) [Sufoxazine, sufoxazine]		76 ± 17% and 68 ± 14%
